Literature values in patent US20250040547A1, “COMPOSITION CONTAINING A MACROLIDE INSECTICIDAL COMPOUND AND POLYCATIONIC RHEOLOGY MODIFIER” (priority 2021, published 2025).

Q: With Emamectin benzoate as the substance, how does the water solubility read?
A: 24 mg/L-1
